Reference: patent US20220259193A1, “KCNT1 INHIBITORS AND METHODS OF USE” (Praxis Precision Medicines, Inc., priority 2019, published 2022)
pIC50: −log10 of the molar value.

Protein sequences, listed by entry. Tags and fused reporters are not part of them.
UniProt Q5JUK3, whole entry: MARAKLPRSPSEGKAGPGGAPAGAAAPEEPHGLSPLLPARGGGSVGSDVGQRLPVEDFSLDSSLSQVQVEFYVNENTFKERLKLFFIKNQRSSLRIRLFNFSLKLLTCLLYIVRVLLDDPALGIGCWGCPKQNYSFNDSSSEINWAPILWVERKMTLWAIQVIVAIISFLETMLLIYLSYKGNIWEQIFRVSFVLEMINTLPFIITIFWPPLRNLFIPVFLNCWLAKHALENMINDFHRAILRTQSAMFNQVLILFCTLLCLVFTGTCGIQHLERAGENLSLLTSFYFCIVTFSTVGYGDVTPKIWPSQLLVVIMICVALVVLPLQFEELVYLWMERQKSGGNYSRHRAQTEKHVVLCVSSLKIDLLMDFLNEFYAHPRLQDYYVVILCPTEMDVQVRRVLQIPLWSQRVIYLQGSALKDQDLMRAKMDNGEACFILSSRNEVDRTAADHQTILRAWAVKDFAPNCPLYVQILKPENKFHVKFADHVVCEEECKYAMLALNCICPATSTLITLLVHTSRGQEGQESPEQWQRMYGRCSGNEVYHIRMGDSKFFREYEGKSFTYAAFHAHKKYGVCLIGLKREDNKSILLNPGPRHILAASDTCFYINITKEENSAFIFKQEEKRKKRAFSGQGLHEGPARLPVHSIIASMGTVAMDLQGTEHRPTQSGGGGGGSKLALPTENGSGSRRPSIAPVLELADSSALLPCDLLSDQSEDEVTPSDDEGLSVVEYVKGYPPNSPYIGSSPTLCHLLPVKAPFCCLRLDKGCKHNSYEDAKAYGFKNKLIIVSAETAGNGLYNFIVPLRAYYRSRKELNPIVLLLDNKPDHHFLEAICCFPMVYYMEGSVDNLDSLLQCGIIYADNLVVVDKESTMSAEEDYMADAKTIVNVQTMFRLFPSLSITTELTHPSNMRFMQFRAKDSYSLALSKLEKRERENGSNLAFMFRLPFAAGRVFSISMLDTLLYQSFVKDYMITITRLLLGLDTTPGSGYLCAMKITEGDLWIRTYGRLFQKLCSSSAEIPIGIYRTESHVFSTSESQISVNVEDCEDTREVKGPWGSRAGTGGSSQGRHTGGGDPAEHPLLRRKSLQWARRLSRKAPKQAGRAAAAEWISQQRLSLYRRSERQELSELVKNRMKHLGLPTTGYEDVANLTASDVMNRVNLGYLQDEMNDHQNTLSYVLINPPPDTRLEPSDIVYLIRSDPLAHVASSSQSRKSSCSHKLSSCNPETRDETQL

Biological target: KCNT1 (KNa1.1, Slack) (Homo sapiens, UniProt Q5JUK3)
Assay: KCNT1 patch clamp assay (SyncroPatch 384PE automated patch clamp)
Assay type: cell-based
Conditions: read-out: KCNT1-WT IC50; tetracycline inducible HEK-TREX cell line; perforated patch; step from −80 mV to 0 mV; room temperature

Structure (SMILES)	pIC50
CC(C)c1cc(C(=O)N[C@@H](C)c2nc(-c3cccc(C(F)(F)F)c3)no2)n(C)n1 (single isomer, unassigned)	4.70 to 6.00
CC(C)c1cc(C(=O)N[C@@H](C)c2nc(-c3cccc(F)c3)no2)n(C)n1 (single isomer, unassigned)	4.70 to 6.00
C[C@@H](NC(=O)c1cc(C(F)(F)F)nn1C1CC1)c1nc(-c2cccc(Cl)c2)no1 (single isomer, unassigned)	4.70 to 6.00
C[C@@H](NC(=O)c1cc(C2CC2)nn1C)c1nc(-c2ccc(Cl)cc2)no1 (single isomer, unassigned)	4.70 to 6.00
C[C@@H](NC(=O)c1cc(C2CC2)nn1C)c1nc(-c2cccc(Cl)c2)no1 (single isomer, unassigned)	4.70 to 6.00
Cc1cccc(-c2noc([C@@H](C)NC(=O)c3cc(C)nn3C(F)F)n2)c1 (single isomer, unassigned)	4.70 to 6.00
Cc1cccc(-c2noc([C@@H](C)NC(=O)c3nn(C(C)C)cc3C)n2)c1 (single isomer, unassigned)	4.70 to 6.00
Cc1cccc(-c2noc([C@H](C)NC(=O)c3cc(C(C)(C)C)nn3C)n2)c1 (single isomer, unassigned)	> 6.00
Cc1cccc(-c2noc([C@H](C)NC(=O)c3cc(C(C)C)nn3C)n2)c1 (single isomer, unassigned)	4.70 to 6.00
Cc1cccc(-c2noc([C@H](C)NC(=O)c3cc(C(F)(F)F)nn3C)n2)c1 (single isomer, unassigned)	4.70 to 6.00
Cc1cccc(-c2noc([C@H](C)NC(=O)c3cc(C(F)F)nn3C)n2)c1 (single isomer, unassigned)	4.70 to 6.00
Cc1cccc(-c2noc([C@H](C)NC(=O)c3cc(C)nn3C(C)C)n2)c1 (single isomer, unassigned)	4.70 to 6.00
Cc1cccc(-c2noc([C@H](C)NC(=O)c3cc(C)nn3C(F)F)n2)c1 (single isomer, unassigned)	> 6.00
Cc1cccc(-c2noc([C@H](C)NC(=O)c3cc(C)nn3C)n2)c1 (single isomer, unassigned)	4.70 to 6.00
Cc1cccc(-c2noc([C@H](C)NC(=O)c3nn(C(C)C)cc3C)n2)c1 (single isomer, unassigned)	4.70 to 6.00
Cn1nc(C(F)(F)F)cc1C(=O)NC(c1nc(-c2cccc(F)c2)no1)C1CCCO1 (single isomer, unassigned) [172]	4.70 to 6.00
Cn1nc(C(F)(F)F)cc1C(=O)NC(c1nc(-c2cccc(F)c2)no1)C1CCCO1 (single isomer, unassigned) [173]	4.70 to 6.00
Cn1nc(C(F)(F)F)cc1C(=O)NC(c1nc(-c2cccc(F)c2)no1)C1CCCO1 (single isomer, unassigned) [174]	> 6.00
Cn1nc(C(F)(F)F)cc1C(=O)NC(c1nc(-c2cccc(F)c2)no1)C1CCCO1 (single isomer, unassigned) [175]	> 6.00

Second part, the compound after the results:

pIC50	Structure (SMILES)
> 6.00	Cc1nn(C(C)C)cc1C(=O)N[C@@H](C)c1nc(-c2cccc(C(F)F)c2)no1
> 6.00	Cc1nn(C(F)F)cc1C(=O)N[C@@H](C)c1nc(-c2cccc(F)c2)no1
> 6.00	CC(C)c1cc(C(=O)N[C@H](C)c2nc(-c3cccc(C(F)(F)F)c3)no2)n(C)n1 (single isomer, unassigned)
> 6.00	CC(C)c1cc(C(=O)N[C@H](C)c2nc(-c3cccc(F)c3)no2)n(C)n1 (single isomer, unassigned)
> 6.00	CC(NC(=O)c1cc(C(F)(F)F)nn1C)c1nc(-c2ccc(Cl)cc2Cl)no1 (single isomer, unassigned)
> 6.00	C[C@H](NC(=O)c1cc(C(F)(F)F)nn1C1CC1)c1nc(-c2cccc(Cl)c2)no1 (single isomer, unassigned)
> 6.00	C[C@H](NC(=O)c1cc(C2CC2)nn1C)c1nc(-c2ccc(Cl)cc2)no1 (single isomer, unassigned)
> 6.00	C[C@H](NC(=O)c1cc(C2CC2)nn1C)c1nc(-c2cccc(Cl)c2)no1 (single isomer, unassigned)
> 6.00	Cc1cccc(-c2noc(C(C)NC(=O)c3cc(C(F)(F)F)nn3CC(F)F)n2)c1 (single isomer, unassigned)
> 6.00	Cc1cccc(-c2noc([C@@H](C)NC(=O)c3cc(C(C)(C)C)nn3C)n2)c1 (single isomer, unassigned)
> 6.00	Cc1cccc(-c2noc([C@@H](C)NC(=O)c3cc(C(C)C)nn3C)n2)c1 (single isomer, unassigned)
> 6.00	Cc1cccc(-c2noc([C@@H](C)NC(=O)c3cc(C(F)(F)F)nn3C)n2)c1 (single isomer, unassigned)
> 6.00	Cc1cccc(-c2noc([C@@H](C)NC(=O)c3cc(C(F)F)nn3C)n2)c1 (single isomer, unassigned)
> 6.00	Cc1cccc(-c2noc([C@@H](C)NC(=O)c3cc(C)nn3C(C)C)n2)c1 (single isomer, unassigned)
> 6.00	Cc1cccc(-c2noc([C@@H](C)NC(=O)c3cc(C)nn3C)n2)c1 (single isomer, unassigned)
